Data on two molecules can be found in patent US12534742B2, “Compound for regulating gene editing efficiency and application thereof” (Shanghai Institute of Organic Chemistry, Chinese Academy of …, priority 2018, dated 2026).

The chains behind the UniProt entries cited, without tags or fusion partners.
UniProt Q99ZW2, whole entry: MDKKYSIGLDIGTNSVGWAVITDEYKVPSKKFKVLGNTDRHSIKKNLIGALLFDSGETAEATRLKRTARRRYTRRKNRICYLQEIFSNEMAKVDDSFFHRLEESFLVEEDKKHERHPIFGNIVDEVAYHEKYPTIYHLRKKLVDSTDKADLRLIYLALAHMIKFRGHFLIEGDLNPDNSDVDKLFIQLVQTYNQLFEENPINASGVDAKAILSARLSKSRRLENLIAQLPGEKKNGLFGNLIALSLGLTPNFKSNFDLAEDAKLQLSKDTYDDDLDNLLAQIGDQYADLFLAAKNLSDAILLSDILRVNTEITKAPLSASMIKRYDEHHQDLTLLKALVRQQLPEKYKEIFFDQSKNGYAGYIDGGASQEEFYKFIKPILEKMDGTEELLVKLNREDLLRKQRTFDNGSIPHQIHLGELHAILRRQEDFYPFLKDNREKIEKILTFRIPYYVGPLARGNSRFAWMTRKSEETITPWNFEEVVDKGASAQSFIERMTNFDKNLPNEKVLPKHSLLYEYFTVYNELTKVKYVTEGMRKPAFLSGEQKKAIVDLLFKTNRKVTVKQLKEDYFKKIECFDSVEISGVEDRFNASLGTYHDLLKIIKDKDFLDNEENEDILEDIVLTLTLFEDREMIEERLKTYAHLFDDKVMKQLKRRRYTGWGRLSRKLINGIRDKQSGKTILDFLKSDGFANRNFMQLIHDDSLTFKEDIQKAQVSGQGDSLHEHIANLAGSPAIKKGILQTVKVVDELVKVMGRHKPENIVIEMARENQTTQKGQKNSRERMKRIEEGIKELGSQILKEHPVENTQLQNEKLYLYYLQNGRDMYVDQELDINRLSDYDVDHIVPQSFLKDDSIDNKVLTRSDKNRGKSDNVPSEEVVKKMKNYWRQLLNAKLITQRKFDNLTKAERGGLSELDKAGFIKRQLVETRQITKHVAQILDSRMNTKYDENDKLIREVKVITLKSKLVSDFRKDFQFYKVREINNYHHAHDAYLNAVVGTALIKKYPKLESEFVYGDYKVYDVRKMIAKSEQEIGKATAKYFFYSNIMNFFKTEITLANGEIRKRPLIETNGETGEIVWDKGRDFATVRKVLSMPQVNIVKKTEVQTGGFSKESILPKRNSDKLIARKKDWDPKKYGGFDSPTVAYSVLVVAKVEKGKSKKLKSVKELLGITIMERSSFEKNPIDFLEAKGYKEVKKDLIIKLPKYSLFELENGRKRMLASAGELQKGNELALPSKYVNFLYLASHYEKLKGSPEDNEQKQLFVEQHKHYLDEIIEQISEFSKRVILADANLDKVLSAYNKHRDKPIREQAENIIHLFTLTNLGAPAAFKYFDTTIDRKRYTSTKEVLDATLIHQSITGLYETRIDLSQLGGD

Molecules are shown by their SMILES.

This test has as its target CRISPR/Cas9 from Streptococcus pyogenes (SpyCas9) (Streptococcus pyogenes serotype M1, UniProt Q99ZW2).
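Further: Cell-based reporter with a SpyCas9 target site placed in EGFP, where NHEJ repair of the cut restores the reading frame, read-out is the share of EGFP-positive cells, lowered by inhibitors.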

In turn, `C=CC#N` gave an IC50 of over 100 µM.

`C=CC(N)=O`: the IC50 was over 100 µM.
